Assay results as given in patent US20020120242A1, “Absorbent articles with hydrophilic compositions containing botanicals” (priority 2000, published 2002).

Test system: EPIDERM skin culture
Assay: MTT viability assay on EPIDERM skin culture after test composition + insult
Details: relative to control + PBS

[Cl-].[Cl-].[Sr+2] [Strontium Chloride]
Viability (percentage) (1% in PBS + protease insult): 85% | Viability (percentage) (10% in PBS + protease insult): 82%
